Literature values, collected in article PMC4463590.
pKd: −log10 of the molar value.

Biological target: cyclin A (Homo sapiens) (UniProt P20248)

pKd: 6.22
Substance: CDK2 (from UniProt P24941)
